## Measured affinities in a library of Ab-14 heavy chain variants

Values reported by Li et al. 2023, doi:10.1038/s41467-023-39022-2 (FLAb copy).

All variants were tested on one target, the spike HR2 peptide PDVDLGDISGINAS (SARS-CoV-2).

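The parent was found by panning a naive human phage display library on the peptide. This is the validation round: designs drawn from the data on random variants, tested in the same kind of assay. Group labels follow the data file (Ctrl: baseline library sampled from a position-specific scoring matrix, with some repeated check sequences; Rand: our label for a block that the file lists under HC and that is probably the random mutants of the ten best first-round binders; En: ensemble of fine-tuned language models; GP: Gaussian process model; GPLM: also part of the Gaussian process libraries; HC: hill climbing; Gen: genetic algorithm; Gibbs: Gibbs sampling; a sequence that several methods proposed may carry one label only). AlphaSeq pools MATa yeast showing the antibodies with MATalpha yeast showing the peptide. Pairs that bind mate more often; barcode pairs of the diploids are counted by sequencing. Each replicate has its own calibration line, from reference interactions of the BCL2 family. Mating was done six times.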

Parent scFv Ab-14: VH joined to VL by the linker GGGGSGGGGSGGGGS. Changes lie in the heavy chain CDRs alone.
VH: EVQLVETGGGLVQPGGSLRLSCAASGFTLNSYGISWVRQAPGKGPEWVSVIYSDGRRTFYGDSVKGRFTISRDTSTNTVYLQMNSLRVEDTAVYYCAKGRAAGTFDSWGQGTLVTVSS
VL: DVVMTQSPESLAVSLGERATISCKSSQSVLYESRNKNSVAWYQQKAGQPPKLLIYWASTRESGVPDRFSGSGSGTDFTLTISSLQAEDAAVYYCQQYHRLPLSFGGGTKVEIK

Each variant's VH is given in full. Scale: log10 of Kd in nM, estimated from mating counts; low values are strong binders. Averages over replicates are reported, and they cover detected replicates only. "not detected" marks a missing value. The strain was present, yet no cells mated with the target were sequenced in any replicate, which points to weak or no binding. Values of this round are not directly comparable with the first-round values of the same sequences. Background: pairings of all heavy chain designs with three empty control strains gave a value in 1% of cases (median 2.08, 5th percentile 0.84). Values in that range, when seen in few replicates, are hard to tell from nonspecific mating. For each scFv, signals with the empty controls are counted beside the result. The authors averaged sequences with at least three values out of six and counted those with two or fewer as poor binders.

{"VH": "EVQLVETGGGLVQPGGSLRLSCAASGFTLNMYGISWVRQAPGKGPEWVSVIYSDGRRTFYKDSYKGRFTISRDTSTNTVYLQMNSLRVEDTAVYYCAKGWAMGTFDSWGQGTLVTVSS", "group": "Ctrl", "log10 Kd (nM), mean": "not detected", "seen in": "0 of 6", "control signals": "0 of 18"}
{"VH": "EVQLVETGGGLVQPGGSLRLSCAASGFDLNEYGISWVRQAPGKGPEWVSVIYADGRRTFYSDKVKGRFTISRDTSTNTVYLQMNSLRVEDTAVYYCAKGNFAGTFDIWGQGTLVTVSS", "group": "En_HC", "log10 Kd (nM), mean": "-0.13", "seen in": "6 of 6", "control signals": "0 of 18"}
{"VH": "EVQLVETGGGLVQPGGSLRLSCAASGFTLNQYGWSWVRQAPGKGPEWVSVIYSDGRRTFCSDSVKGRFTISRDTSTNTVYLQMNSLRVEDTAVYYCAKGRAAGFFDSWGQGTLVTVSS", "group": "Rand", "log10 Kd (nM), mean": "not detected", "seen in": "0 of 6", "control signals": "0 of 18"}
{"VH": "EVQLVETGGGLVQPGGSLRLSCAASGFTLNSYGISWVRQAPGKGPEWVSVIYSDGRRCSYSDSVKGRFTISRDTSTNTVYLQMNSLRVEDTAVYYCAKGSAAGTFDSWGQGTLVTVSS", "group": "Ctrl", "log10 Kd (nM), mean": "2.01", "seen in": "3 of 6", "control signals": "0 of 18"}
{"VH": "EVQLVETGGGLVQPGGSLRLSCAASGEDLMEYGISWVRQAPGKGPEWVSVIYADGERRSYANSVKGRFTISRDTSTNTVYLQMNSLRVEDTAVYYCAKGGVSGNFSSWGQGTLVTVSS", "group": "En_Gibbs", "log10 Kd (nM), mean": "not detected", "seen in": "0 of 6", "control signals": "0 of 18"}
{"VH": "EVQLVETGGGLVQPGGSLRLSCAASGFSLNEYGISWVRQAPGKGPEWVSVIYSDGKRTFYGDSVKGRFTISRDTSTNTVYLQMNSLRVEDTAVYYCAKGRQAGTFDSWGQGTLVTVSS", "group": "GP_Gen", "log10 Kd (nM), mean": "0.12", "seen in": "6 of 6", "control signals": "0 of 18"}
{"VH": "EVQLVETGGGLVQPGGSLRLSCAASGFTLNSYGISWVRQAPGKGPEWVSVIYADGRRTFYGDSVKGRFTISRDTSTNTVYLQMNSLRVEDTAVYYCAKGKAAGTFDLWGQGTLVTVSS", "group": "GPLM_Gen", "log10 Kd (nM), mean": "-0.02", "seen in": "6 of 6", "control signals": "0 of 18"}
{"VH": "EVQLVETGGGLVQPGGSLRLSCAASGFTLNSYGISWVRQAPGKGPEWVSVIYSDGRRTFYKDSVKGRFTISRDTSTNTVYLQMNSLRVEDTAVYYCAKGQLAGTFDSWGQGTLVTVSS", "group": "GPLM_HC", "log10 Kd (nM), mean": "1.38", "seen in": "6 of 6", "control signals": "0 of 18"}
{"VH": "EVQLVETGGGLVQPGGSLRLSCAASGFELDEYGISWVRQAPGKGPEWVSVIYADGLRYHYANSVKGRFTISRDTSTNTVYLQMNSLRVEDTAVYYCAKGEMAGTFTTWGQGTLVTVSS", "group": "En_Gibbs", "log10 Kd (nM), mean": "1.58", "seen in": "5 of 6", "control signals": "0 of 18"}
{"VH": "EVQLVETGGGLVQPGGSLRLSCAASGFGLDEYGISWVRQAPGKGPEWVSVIYADGVRTFYADSVKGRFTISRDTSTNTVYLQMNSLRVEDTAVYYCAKGENAGTFFMWGQGTLVTVSS", "group": "En_HC", "log10 Kd (nM), mean": "2.36", "seen in": "1 of 6", "control signals": "0 of 18"}
{"VH": "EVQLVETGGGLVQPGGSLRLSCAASGFGLNEYGISWVRQAPGKGPEWVSVIYSDGRRTFYDDSVKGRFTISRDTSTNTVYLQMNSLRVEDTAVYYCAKGRAAGTFDSWGQGTLVTVSS", "group": "GP_HC", "log10 Kd (nM), mean": "0.79", "seen in": "6 of 6", "control signals": "0 of 18"}
{"VH": "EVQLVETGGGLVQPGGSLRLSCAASGFNLNSYGISWVRQAPGKGPEWVSVIYSDGRRTFYADPVKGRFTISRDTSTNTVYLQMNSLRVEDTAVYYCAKGQEAGTFDSWGQGTLVTVSS", "group": "GP_Gibbs", "log10 Kd (nM), mean": "0.15", "seen in": "6 of 6", "control signals": "1 of 18"}
{"VH": "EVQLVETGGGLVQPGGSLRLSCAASGFDLNEYGISWVRQAPGKGPEWVSVIYADGRRTFYTDSVKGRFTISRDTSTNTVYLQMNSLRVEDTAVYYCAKGVNAGTFDVWGQGTLVTVSS", "group": "En_HC", "log10 Kd (nM), mean": "-0.32", "seen in": "6 of 6", "control signals": "0 of 18"}
{"VH": "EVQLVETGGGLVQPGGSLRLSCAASGFDLNEYGISWVRQAPGKGPEWVSVIYADGRRTSYIDSVKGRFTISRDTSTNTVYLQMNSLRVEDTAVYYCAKGEAAGTFDMWGQGTLVTVSS", "group": "En_HC", "log10 Kd (nM), mean": "-0.21", "seen in": "6 of 6", "control signals": "0 of 18"}
{"VH": "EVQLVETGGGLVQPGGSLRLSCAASGFSLNEYGISWVRQAPGKGPEWVSVIYSDGRRTFYGDSVKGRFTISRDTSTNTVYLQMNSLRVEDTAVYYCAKGREAGTFDKWGQGTLVTVSS", "group": "GPLM_Gen", "log10 Kd (nM), mean": "-0.42", "seen in": "6 of 6", "control signals": "1 of 18"}
{"VH": "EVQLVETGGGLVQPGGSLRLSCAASGFDLNSYGISWVRQAPGKGPEWVSVIYSDGRRTFYGDSVKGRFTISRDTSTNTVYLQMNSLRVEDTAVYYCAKGRAAGFFNSWGQGTLVTVSS", "group": "GPLM_HC", "log10 Kd (nM), mean": "not detected", "seen in": "0 of 6", "control signals": "1 of 18"}
{"VH": "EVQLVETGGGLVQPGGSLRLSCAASGFDLNSYGISWVRQAPGKGPEWVSVIYSDGRRTFYTDSVKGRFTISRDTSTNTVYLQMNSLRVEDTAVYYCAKGRFAGTFDSWGQGTLVTVSS", "group": "GP_HC", "log10 Kd (nM), mean": "-0.20", "seen in": "6 of 6", "control signals": "0 of 18"}
{"VH": "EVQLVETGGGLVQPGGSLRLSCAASGDELNSYGISWVRQAPGKGPEWVSVIYSDGRRTFYQDSVKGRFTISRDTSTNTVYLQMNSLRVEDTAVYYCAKGRAAGTFDSWGQGTLVTVSS", "group": "Ctrl", "log10 Kd (nM), mean": "not detected", "seen in": "0 of 6", "control signals": "0 of 18"}

The first 3 entries again:

| VH | group | log10 Kd (nM), mean | seen in | control signals |
|---|---|---|---|---|
| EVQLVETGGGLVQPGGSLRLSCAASGFTLNMYGISWVRQAPGKGPEWVSVIYSDGRRTFYKDSYKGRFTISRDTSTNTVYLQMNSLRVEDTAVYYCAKGWAMGTFDSWGQGTLVTVSS | Ctrl | not detected | 0 of 6 | 0 of 18 |
| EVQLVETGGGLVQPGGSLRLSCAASGFDLNEYGISWVRQAPGKGPEWVSVIYADGRRTFYSDKVKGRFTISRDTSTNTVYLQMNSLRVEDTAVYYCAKGNFAGTFDIWGQGTLVTVSS | En_HC | -0.13 | 6 of 6 | 0 of 18 |
| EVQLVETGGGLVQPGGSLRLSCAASGFTLNQYGWSWVRQAPGKGPEWVSVIYSDGRRTFCSDSVKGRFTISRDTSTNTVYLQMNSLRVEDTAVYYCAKGRAAGFFDSWGQGTLVTVSS | Rand | not detected | 0 of 6 | 0 of 18 |